Source: patent publication US9540377B2, “2,6,7,8 substituted purines as HDM2 inhibitors” (Merck Sharp & Dohme Corp., priority 2013, dated 2017)

Protein sequences, listed by entry. Tags and fused reporters are not part of them. Residues count along the entry.
UniProt Q00987, 17-125: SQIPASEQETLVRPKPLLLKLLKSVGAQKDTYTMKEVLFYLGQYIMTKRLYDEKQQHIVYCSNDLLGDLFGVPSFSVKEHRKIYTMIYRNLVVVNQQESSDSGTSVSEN

Molecular target: HDM2 (truncated, residues 17 to 125, containing p53 binding surface) (Homo sapiens (Human), UniProt Q00987)
Test: HDM2 FRET assay (inhibition of binding of FITC labeled p53-site peptide to HDM2)
Source text: (containing p53 binding surface, Science (1994) 265, 346-355), with N-terminal His and Thioredoxin tag was generated in pET32a expression vector and expressed in E. coli strain BL21(DE3)Rosetta. […] IC50 DETERMINATIONS: Dose-response curves were plotted from the inhibition data, from 10 point serial dilutions of inhibitory compounds. Concentration of compound was plotted against em520/Cem495 ratio signal. To generate IC50 values, the dose-response curves were fitted to a standard sigmoidal curve and IC50 values were derived by nonlinear regression analysis.

Structure (SMILES)	IC50 (Table 23)	other results
C[C@@H]1OCCN(c2nc3nc(-c4n[nH]c(=O)o4)nc(-c4cccc(Cl)c4)c3n2C[C@H]2CC[C@H](C)CC2)[C@@H]1C (racemic) [Example 16.101, 5-{6-(3-chlorophenyl)-8-[(cis)-2,3-dimethylmorpholin-4-yl]-7-[(trans-4-methylcyclohexyl)methyl]-7H-purin-2-yl}-1,3,4-oxadiazol-2(3H)-one]		IC50 (Table 16): 41.3 nM
C[C@H]1CC[C@H](Cn2c(C(O)c3ccccc3)nc3nc(-c4noc(=O)[nH]4)nc(-c4cccc(Cl)c4)c32)CC1 (single isomer, unassigned) [Example 23.41, 3-{6-(3-chlorophenyl)-8-[hydroxy(phenyl)methyl]-7-[(trans-4-methylcyclohexyl)methyl]-7H-purin-2-yl}-1,2,4-oxadiazol-5(4H)-one]	18.5 nM	
COC1(c2nc3nc(-c4noc(=O)[nH]4)nc(-c4cncc(Cl)c4)c3n2C[C@H]2CC[C@H](C)CC2)CCOCC1C (single isomer, unassigned) [Example 23.96, 1,5-anhydro-3-C-[6-(5-chloropyridin-3-yl)-7-[(trans-4-methylcyclohexyl)methyl]-2-(5-oxo-4,5-dihydro-1,2,4-oxadiazol-3-yl)-7H-purin-8-yl]-2,4-dideoxy-2-methyl-3-O-methylpentitol]	12.1 nM	
COC(c1ccccn1)c1nc2nc(-c3noc(=O)[nH]3)nc(-c3cccc(Cl)c3)c2n1C[C@H]1CC[C@H](C)CC1 (single isomer, unassigned) [Example 23.46, 3-{6-(3-chlorophenyl)-8-[methoxy(pyridin-2-yl)methyl]-7-[(trans-4-methylcyclohexyl)methyl]-7H-purin-2-yl}-1,2,4-oxadiazol-5(4H)-one]	8.27 nM	
COC(C)(C)C1CCCN1c1nc2nc(-c3noc(=O)[nH]3)nc(-c3cccc(Cl)c3)c2n1C[C@H]1CC[C@H](C)CC1 (single isomer, unassigned) [Example 16.66, 3-{6-(3-chlorophenyl)-8-[2-(1-methoxy-1-methylethyl)pyrrolidin-1-yl]-7-[(trans-4-methylcyclohexyl)methyl]-7H-purin-2-yl}-1,2,4-oxadiazol-5(4H)-one]		IC50 (Table 16): 1.24 nM
C[C@@H]1[C@@H](C)OCCN1c1nc2nc(-c3n[nH]c(=O)o3)nc(-c3cccc(Cl)c3)c2n1C[C@H]1CC[C@H](C)CC1 (racemic) [Example 16.134, 5-{6-(3-chlorophenyl)-8-[(trans)-2,3-dimethylmorpholin-4-yl]-7-[(trans-4-methylcyclohexyl)methyl]-7H-purin-2-yl}-1,3,4-oxadiazol-2(3H)-one]		IC50 (Table 16): 11.1 nM
C[C@@H]1[C@@H](C)OCCN1c1nc2nc(-c3noc(=O)[nH]3)nc(-c3cccc(Cl)c3)c2n1C[C@H]1CC[C@H](C)CC1 (racemic) [Example 16.102, 3-{6-(3-chlorophenyl)-8-[(trans)-2,3-dimethylmorpholin-4-yl]-7-[(trans-4-methylcyclohexyl)methyl]-7H-purin-2-yl}-1,2,4-oxadiazol-5(4H)-one]		IC50 (Table 16): 7.8 nM
C[C@H]1CC[C@H](Cn2c(N3CCO[C@H]4CCCC[C@H]43)nc3nc(-c4n[nH]c(=O)o4)nc(-c4cncc(Cl)c4)c32)CC1 (racemic) [Example 16.128, 5-{6-(5-chloropyridin-3-yl)-7-[(trans-4-methylcyclohexyl)methyl]-8-[(cis)-octahydro-4H-1,4-benzoxazin-4-yl]-7H-purin-2-yl}-1,3,4-oxadiazol-2(3H)-one]		IC50 (Table 16): 75.6 nM
COC(c1nc2nc(-c3noc(=O)[nH]3)nc(-c3cncc(Cl)c3)c2n1C[C@H]1CC[C@H](C)CC1)C1CCCCC1 (mixture of isomers) [Example 23.21, 3-{6-(5-chloropyridin-3-yl)-8-[cyclohexyl(methoxy)methyl]-7-[(trans-4-methylcyclohexyl)methyl]-7H-purin-2-yl}-1,2,4-oxadiazol-5(4H)-one]	10.4 nM	
COC(c1ccccn1)c1nc2nc(-c3noc(=O)[nH]3)nc(-c3cccc(Cl)c3)c2n1C[C@H]1CC[C@H](C)CC1 (single isomer, unassigned) [Example 23.45, 3-{6-(3-chlorophenyl)-8-[methoxy(pyridin-2-yl)methyl]-7-[(trans-4-methylcyclohexyl)methyl]-7H-purin-2-yl}-1,2,4-oxadiazol-5(4H)-one]	5.15 nM	
COC1(c2nc3nc(-c4noc(=O)[nH]4)nc(-c4cncc(Cl)c4)c3n2C[C@H]2CC[C@H](C)CC2)CCOCC1C (single isomer, unassigned) [Example 23.97, 1,5-anhydro-3-C-[6-(5-chloropyridin-3-yl)-7-[(trans-4-methylcyclohexyl)methyl]-2-(5-oxo-4,5-dihydro-1,2,4-oxadiazol-3-yl)-7H-purin-8-yl]-2,4-dideoxy-2-methyl-3-O-methylpentitol]	11.3 nM	
COC(C)(c1csc(C)n1)c1nc2nc(-c3n[nH]c(=O)o3)nc(-c3cncc(Cl)c3)c2n1C[C@H]1CC[C@H](C)CC1 (mixture of isomers) [Example 23.51, 5-{6-(5-chloropyridin-3-yl)-8-[1-methoxy-1-(2-methyl-1,3-thiazol-4-yl)ethyl]-7-[(trans-4-methylcyclohexyl)methyl]-7H-purin-2-yl}-1,3,4-oxadiazol-2(3H)-one]	5.19 nM	
C[C@@H](Nc1nc([S+]([O-])CC(F)(F)F)nc2nc(N3CCOC[C@H]3c3ccccc3)n(C[C@H]3CC[C@H](C)CC3)c12)C1CCC1 (single isomer, unassigned) [Example 14.17]		IC50 (Table 14): 321 nM
CC(F)(c1cccc(Cl)c1F)c1nc2nc(-c3n[nH]c(=O)o3)nc(-c3cncc(Cl)c3)c2n1C[C@H]1CC[C@H](C)CC1 (single isomer, unassigned) [Example 23.59, 5-{8-[1-(3-chloro-2-fluorophenyl)-1-fluoroethyl]-6-(5-chloropyridin-3-yl)-7-[(trans-4-methylcyclohexyl)methyl]-7H-purin-2-yl}-1,3,4-oxadiazol-2(3H)-one]	0.896 nM	
C[C@H]1CC[C@H](Cn2c(C(O)c3ccccc3)nc3nc(-c4noc(=O)[nH]4)nc(-c4cccc(Cl)c4)c32)CC1 (single isomer, unassigned) [Example 23.42, 3-{6-(3-chlorophenyl)-8-[hydroxy(phenyl)methyl]-7-[(trans-4-methylcyclohexyl)methyl]-7H-purin-2-yl}-1,2,4-oxadiazol-5(4H)-one]	6.89 nM	
CC(F)(c1ccccc1F)c1nc2nc(C(=O)O)nc(-c3cncc(Cl)c3)c2n1C[C@H]1CC[C@H](C)CC1 (single isomer, unassigned) [Example 23.67, 6-(5-chloropyridin-3-yl)-8-[1-fluoro-1-(2-fluorophenyl)ethyl]-7-[(trans-4-methylcyclohexyl)methyl]-7H-purine-2-carboxylic acid]	0.176 nM	
C[C@H]1CC[C@H](Cn2c(C3OCCc4ccccc43)nc3nc(-c4noc(=O)[nH]4)nc(-c4cncc(Cl)c4)c32)CC1 (single isomer, unassigned) [Example 23.104, 3-{6-(5-chloropyridin-3-yl)-8-(3,4-dihydro-1H-isochromen-1-yl)-7-[(trans-4-methylcyclohexyl)methyl]-7H-purin-2-yl}-1,2,4-oxadiazol-5(4H)-one]	1.03 nM	
COC(C)(c1ccccn1)c1nc2nc(-c3nc(=O)o[nH]3)nc(-c3cccc(Cl)c3)c2n1C[C@H]1CC[C@H](C)CC1 (single isomer, unassigned) [Example 23.53, 3-{6-(3-chlorophenyl)-8-[1-methoxy-1-(pyridin-2-yl)ethyl]-7-[(trans-4-methylcyclohexyl)methyl]-7H-purin-2-yl}-1,2,4-oxadiazol-5(2H)-one]	3.34 nM	
COC(c1ccccc1)c1nc2nc(-c3noc(=O)[nH]3)nc(-c3cncc(Cl)c3)c2n1C[C@H]1CC[C@H](C)CC1 (single isomer, unassigned) [Example 23.47, 3-{6-(5-chloropyridin-3-yl)-8-[methoxy(phenyl)methyl]-7-[(trans-4-methylcyclohexyl)methyl]-7H-purin-2-yl}-1,2,4-oxadiazol-5(4H)-one]	9.77 nM	
CC(F)(c1cccc(Cl)c1F)c1nc2nc(-c3n[nH]c(=O)o3)nc(-c3cncc(Cl)c3)c2n1C[C@H]1CC[C@H](C)CC1 (single isomer, unassigned) [Example 23.60, 5-{8-[1-(3-chloro-2-fluorophenyl)-1-fluoroethyl]-6-(5-chloropyridin-3-yl)-7-[(trans-4-methylcyclohexyl)methyl]-7H-purin-2-yl}-1,3,4-oxadiazol-2(3H)-one]	29 nM	
CC(F)(c1ccccc1F)c1nc2nc(C(=O)O)nc(-c3cncc(Cl)c3)c2n1C[C@H]1CC[C@H](C)CC1 (single isomer, unassigned) [Example 23.66, 6-(5-chloropyridin-3-yl)-8-[1-fluoro-1-(2-fluorophenyl)ethyl]-7-[(trans-4-methylcyclohexyl)methyl]-7H-purine-2-carboxylic acid]	5.82 nM	
COC(C)(c1ccccc1C#N)c1nc2nc(-c3noc(=O)[nH]3)nc(-c3cncc(Cl)c3)c2n1C[C@H]1CC[C@H](C)CC1 (single isomer, unassigned) [Example 23.111, 2-{1-[6-(5-chloropyridin-3-yl)-7-[(trans-4-methylcyclohexyl)methyl]-2-(5-oxo-4,5-dihydro-1,2,4-oxadiazol-3-yl)-7H-purin-8-yl]-1-methoxyethyl}benzonitrile]	0.435 nM	
CC(O)(c1nc2nc(-c3n[nH]c(=O)o3)nc(-c3cccc(Cl)c3)c2n1C[C@H]1CC[C@H](C)CC1)C1CCOCC1 (mixture of isomers) [Example 23.13, 5-{6-(3-chlorophenyl)-8-[1-hydroxy-1-(tetrahydro-2H-pyran-4-yl)ethyl]-7-[(trans-4-methylcyclohexyl)methyl]-7H-purin-2-yl}-1,3,4-oxadiazol-2(3H)-one]	22.7 nM	
C[C@@H](Nc1nc([S+]([O-])CC(F)(F)F)nc2nc(N3CCOC[C@H]3c3ccccc3)n(C[C@H]3CC[C@H](C)CC3)c12)C1CCC1 (single isomer, unassigned) [Example 14.16]		IC50 (Table 14): 17.4 nM
